Measured values taken from ChEMBL document CHEMBL1914368, “Imidazo[1,5-a]quinoxalines as irreversible BTK inhibitors for the treatment of rheumatoid arthritis” (Bioorg Med Chem Lett, 2011).

The chains behind the UniProt entries cited, without tags or fusion partners. Where a name states a change or a piece, a line headed by the entry shows the natural chain unless it says otherwise.
UniProt Q06187: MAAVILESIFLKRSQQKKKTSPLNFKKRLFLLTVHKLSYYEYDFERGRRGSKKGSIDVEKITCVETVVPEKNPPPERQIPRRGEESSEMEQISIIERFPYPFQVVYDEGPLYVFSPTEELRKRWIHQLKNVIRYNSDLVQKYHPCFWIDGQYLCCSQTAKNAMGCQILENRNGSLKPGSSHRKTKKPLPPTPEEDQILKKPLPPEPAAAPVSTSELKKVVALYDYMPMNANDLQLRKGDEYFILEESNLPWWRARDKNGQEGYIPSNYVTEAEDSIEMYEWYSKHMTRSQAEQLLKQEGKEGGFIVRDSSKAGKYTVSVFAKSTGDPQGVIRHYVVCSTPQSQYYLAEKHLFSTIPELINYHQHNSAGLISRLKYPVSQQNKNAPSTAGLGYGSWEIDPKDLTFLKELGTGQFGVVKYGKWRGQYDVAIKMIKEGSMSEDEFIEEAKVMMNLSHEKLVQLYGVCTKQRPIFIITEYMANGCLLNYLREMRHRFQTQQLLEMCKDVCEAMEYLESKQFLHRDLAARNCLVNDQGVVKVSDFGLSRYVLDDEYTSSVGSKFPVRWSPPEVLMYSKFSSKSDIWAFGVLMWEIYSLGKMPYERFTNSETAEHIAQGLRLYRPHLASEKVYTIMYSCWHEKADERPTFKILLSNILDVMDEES

Target: Tyrosine-protein kinase BTK (Homo sapiens, UniProt Q06187)
Assay: Inhibition of human full-length BTK expressed in Sf9 cells using FAM-Srctide peptide as substrate after 60 mins by TR-FRET Assay

Cc1ccccc1Nc1nc2cc(F)c(N(C)C(=O)/C=C/CN(C)C)cc2n2cncc12
IC50: 1.93 nM
